This assay deals with A549. Description: Western blot of EGFR signaling and survival pathways in A549. Type of assay: cell-based, human. Particulars: for Relative protein expression level of Akt: 48 hrs, A549, control 100.0±0. As to the method: Western blot analyses. […] Relative densitometric digital analysis for bands of targeted proteins was determined using Image J and normalized by the intensity of the housekeeping gene, α-tubulin.
(In general: A western blot detects proteins with antibodies after separation by electrophoresis.)

1 compound from US11266624B2, “CRM1 inhibitors reduce primary and acquired resistance of EGFR inhibitors in lung cancer cells” (Texas Tech University System, priority 2018, dated 2022) can be followed below.

In the case of `COc1cc2ncnc(Nc3ccc(F)c(Cl)c3)c2cc1OCCCN1CCOCC1` [gefitinib], the “Relative protein expression level of Akt” value is 86±14 (12 μM gefitinib (alone or + 0.5 nM LMB)) and 70±9 (24 μM gefitinib (alone or + 0.5 nM LMB)). Besides, the “p-EGFR(Tyr1068) expression compared with controls” value (A549, 48 hrs, 12/24 μM gefitinib, 0.5 nM LMB) was “decreased”. For the same compound, for the setting “A549, 48 hrs, co-treatment compared with gefitinib alone”, the “p-Akt(Ser473) expression” value is given as “inhibited in a dose-response manner”.
